Assay outcomes deposited in PubChem by National Center for Advancing Translational Sciences (NCATS).
miR-21 reporter – miR-21 reporter, rising signal | AID 2288 | HeLa miR-21 FLuc reporter, luciferase, 48 h | 340,000 tested, under 10 active | Potency, µM (doses to about 38.3 µM), for inactives: at the top dose reporter change, positive = more light; active = well fitted rising curve with a large enough effect; inconclusive = small, poorly fitted or top-dose-only effect; inactive = no such curve, though single readings can be large or run the other way;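 note: % of control where 0% means no effect; miR-21 action dims this reporter so a rising signal means less miR-21 action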
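HeLa miR-21-FLuc reporter line, endogenous miR-21; 2000 cells/well in DMEM/10% FBS; compound titration up to ~40uM final, 48 h, 37 degree Celsius; luciferase detection reagent, 15 min lysis, CCD luminescence.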
TCR activator – activates T cell receptor signaling | primary human leukocytes, anti-CD3, IL-2 HTRF, 48 h | Potency, µM (doses to about 9.22 µM), for the others: at the top dose activation of IL-2 secretion, hits mostly activators | 330,000 tested, under 10 active | AID 504894; further: % of control where 0% means no effect
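48 hr co-incubation of compounds, a-CD3 beads and primary human leukocytes; IL-2 quantified homogeneously by HTRF with anti-IL-2 K and d2 conjugates.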
A549 viability – counter-screen for Nrf2 inhibitors: cytotoxicity in A549 cells. 0.16% of 390,000 active. Potency, µM (series often up to 46 µM), for the others: at the top dose activity change, negative = cytotoxicity, hits mostly inhibitors. A549 ARE-Fluc cells, CellTiter-Fluor viability, 18-24 h. AID 504648; further: potency means the concentration at half of the fitted maximal effect; on the % scale 0 is the no-effect control and ±100 the full control effect
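A549 ARE_Fluc cells in 5% FBS OPTI-MEM were exposed to compounds in concentration-response for 18-24 h at 37 deg C. Viability was read by CellTiter-Fluor fluorescence (Ex 405/Em 525) after 30 min, before the luciferase read.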
ClpP mod – qHTS Assay for Activators of ClpP | ATP-dependent Clp protease proteolytic subunit (Bacillus subtilis (strain 168)), P80244 | purified B. subtilis ClpP, FRET peptide cleavage, 20 min | Potency, µM (top dose mostly 57.5 µM), without a hit: at the top dose activity change, negative = active | 1.9% of 340,000 active; active means well fitted falling curve with a large enough effect; inconclusive means small, poorly fitted or top-dose-only effect; inactive means no such curve, though single readings can be large or run the other way; further: potency means the concentration at half of the fitted maximal effect; the source files actives as falling curves though it sought activators and does not explain the sign; nearly all actives have a fitted effect of over 65% in size
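ClpP 10 microg/mL final, pH 8 Tris/KCl buffer with BSA, glycerol, Tween-20; compound pinned in; FRET-FV substrate; RT 20 min; Ex320/Em430; ΔFRET vs ADEP 5.8 microM, DMSO, no enzyme.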
Nrf2 block – blocks Nrf2 signaling. 2.1% of 360,000 active. A549 ARE-Fluc reporter, luciferase luminescence, 18-24 h. Potency, µM (doses to about 46 µM), without a hit: at the highest dose activity change, negative = inhibition, usual class: inhibitors; further: potency means the concentration at half of the fitted maximal effect; on the % scale 0 is the no-effect control and ±100 the full control effect; nearly all actives have a fitted effect of over 60% in size
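A549 ARE_Fluc cells (5000/well, 5% FBS OPTI-MEM) pre-incubated 2 h, then treated with compounds 18-24 h at 37C/5% CO2 in concentration-response. CellTiter-Fluor viability read first; BugLite luciferase luminescence after 15 min at room temperature gives Nrf2 activity.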
Nrf2 ARE act – activates Nrf2 signaling; AREc32 ARE-luciferase reporter (MCF7-derived line), luminescence, 24 h; Potency, µM (highest dose often 46.1 µM), for the others: at the highest dose activation, usual class: activators; 0.31% of 410,000 active; further: potency means the concentration at half of the fitted maximal effect; % of control where 0% means no effect; nearly all actives have a fitted effect of over 65% in size
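Cells of the AREc32 ARE-luciferase line are plated in OPTI-MEM containing 5% FBS and left overnight at 37 deg C. Compounds are pinned in, incubation continues 24 hr, and firefly luciferase signal is then measured.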
Starred values were filed as active, the others as inactive; ? = inconclusive; · = not tested or not shown; ! = not confirmed by another sample; [ ] = dose if it differs, or a comment. This is a sample that favours compounds with a hit; in the whole collection about 3.7% have one here. Unless noted, the call rests on the fitted dose curve; in most records, active means well fitted curve in the direction sought with a large enough effect; inconclusive means small, poorly fitted or top-dose-only effect, or another doubt; inactive means no such curve, though single readings can be large; an effect the other way counts as inactive or inconclusive.

Labels used below: A = miR-21 reporter; B = TCR activator; C = A549 viability; D = ClpP mod; E = Nrf2 block; F = Nrf2 ARE act
> CC(=O)NC1CCCc2c1cnn2-c1ccc(C(C)(C)C)cc1 (configuration not stated)
  A: -5% | B: 2% | C: -8% | D: -2% | E: -24% | F: 0%
> COc1ccc(C(=O)NC2CCCc3c2cnn3-c2ccc(C)c(C)c2)c(OC)c1OC (configuration not stated)
  A: 8% | B: -9% | C: -11% | D: 1% | E: 13µM* | F: 0%
> COC(=O)c1ccc(C(=O)NC2CCCc3c2cnn3-c2ccccc2F)nc1 (configuration not stated)
  A: 21% | B: 2% | C: -9% | D: -1% | E: 10% | F: 0%
> CC(C)(C)c1ccc(-n2ncc3c2CCCC3NC(=O)C2=NNC(=O)CC2)cc1 (configuration not stated)
  A: 12% | B: 1% | C: -19% | D: -1% | E: 8.2µM* | F: 1%
> COc1cc(C(=O)NC2CCCc3c2cnn3-c2ccccc2F)cc(OC)c1OC (configuration not stated)
  A: 19% | B: 1% | C: -14% | D: 1% | E: 6.5µM* | F: 2%
> [O-]/[N+](=N\Nc1ccc(Cl)cc1)c1ccccc1
  A: · | B: -7% | C: 0% | D: · | E: ? | F: 6%
> CSc1ncnc2[nH]ccc12
  A: · | B: -1% | C: 3% | D: · | E: -8% | F: 0%
> CCCC(=O)NC1CCCc2c1cnn2-c1ccc(C)c(C)c1 (configuration not stated)
  A: -11% | B: · | C: 0% | D: -1% | E: -29% | F: 4%
> COc1cccc(C(=O)NC2CC(C)(C)Cc3c2cnn3-c2cccc(F)c2)c1OC (configuration not stated)
  A: 6% | B: 1% | C: 0% | D: 14µM* | E: -5% | F: 0%
> CCn1nc(C)cc1C(=O)NC1CCCc2c1cnn2-c1ccc(C)c(C)c1 (configuration not stated)
  A: 23% | B: -1% | C: -13% | D: -1% | E: 12µM* | F: 0%
> COc1cc(C(=O)NC2CC(C)(C)Cc3c2cnn3-c2ccccc2)cc(OC)c1OC (configuration not stated)
  A: 1% | B: -2% | C: -1% | D: · | E: 1% | F: 0%
> Fc1cccc(Cc2c(-c3ccc(Cl)cc3)nc3c(Cl)cc(C(F)(F)F)cn23)c1
  A: · | B: · | C: · | D: ? | E: · | F: 2%
> CCc1cccc(CC)c1NC(=O)c1cc(S(=O)(=O)N2CCc3ccccc32)cn1C
  A: 1% | B: · | C: -19% | D: -1% | E: 23µM* | F: -1%
> CSc1ccc(CN(C)C(=O)CNC(=O)c2ccc3c(c2)OCO3)cc1
  A: · | B: -1% | C: -1% | D: -2% | E: 3% | F: 0%
> CN(C)CCNC(=O)c1cccc2nc3c(ccc4ccccc43)nc12
  A: · | B: 1% | C: ? | D: -26% | E: ? | F: 20%
> CN(CCNC(=O)c1c[nH]c2c1ccc1ccccc12)CCNC(=O)c1c[nH]c2c1ccc1ccccc12
  A: · | B: -8% | C: -11% | D: 28µM* | E: ? | F: 0%
> CC(c1ccco1)N(C)c1ncnc2ccc(-c3ccc4c(c3)OCO4)cc12 (configuration not stated)
  A: · | B: · | C: 1% | D: · | E: -7% | F: ·
> O=C1CCc2cc(S(=O)(=O)Nc3ccc4c(c3)CCC4)ccc2N1
  A: · | B: · | C: 3% | D: · | E: ? | F: ·
> CC(=O)N1c2ccc(S(=O)(=O)N3CCC(C(=O)Nc4ccccn4)CC3)cc2CC1C (configuration not stated)
  A: 16% | B: 8% | C: -6% | D: 2% | E: 18µM* | F: -1%
> COc1ccccc1N1CCN(C(=O)C2CCN(S(=O)(=O)c3ccc4c(c3)CC(C)N4C(C)=O)CC2)CC1 (configuration not stated)
  A: 12% | B: -2% | C: 11% | D: 2% | E: -18% | F: 0%
> COc1ccccc1N1CCN(C(=O)C2CCN(S(=O)(=O)c3ccc4c(c3)CC(C)N4C(=O)C3CC3)CC2)CC1 (configuration not stated)
  A: 29% | B: 0% | C: -5% | D: -2% | E: 26µM* | F: 0%
> Cc1ccnc(NC(=O)C2CCN(S(=O)(=O)c3ccc(Cl)c(C(F)(F)F)c3)CC2)c1
  A: · | B: 0% | C: -1% | D: 32µM* | E: -25% | F: 0%
> CC(=O)N1c2ccc(S(=O)(=O)N3CCC(C(=O)N4CCCC(C)C4)CC3)cc2CC1C (configuration not stated)
  A: 16% | B: -8% | C: -8% | D: -1% | E: 16µM* | F: 0%
> CC(NC(=O)CCNC(=O)N1CCn2c1nc1ccccc12)c1ccccc1 (configuration not stated)
  A: 0% | B: 4% | C: 11% | D: 3% | E: -1% | F: 0%
> CC(C)Cc1nc2oc3c(=O)[nH]cnc3c2c2c1CCC2
  A: -2% | B: -4% | C: 0% | D: 11µM* | E: 4% | F: 0%

Additional results follow.
Labels used below: A = miR-21 reporter; B = TCR activator; C = A549 viability; D = ClpP mod; E = Nrf2 block; F = Nrf2 ARE act
> CC(C)Cc1nc2oc3c(=O)[nH]cnc3c2c2c1CCCC2
  A: -3% | B: 1% | C: -8% | D: ? | E: -15% | F: 0%
> Cc1ccc2c(c1)c1c(c(=O)n(-c3ccccc3)c(=O)n1CC(=O)NCCC1=CCCCC1)n2C
  A: 0% | B: · | C: 15% | D: 4% | E: 26% | F: 0%
> COc1cc2c(-c3ccc(O)cc3)nc3c(c(C)nn3-c3ccccc3)c2cc1OC
  A: -9% | B: 2%[46.1 µM] | C: ? | D: 8.9µM* | E: ? | F: 1%
> c1ccc2[nH]c(-c3ccnc4ccccc34)nc2c1
  A: -39% | B: -34% | C: -3% | D: 16µM*! | E: ? | F: 17%
> c1ccc2[nH]c(-c3cscn3)nc2c1
  A: -43% | B: -4% | C: -1% | D: -19% | E: 5% | F: 1%
> c1ccc2c(-c3nc4ccccc4[nH]3)cccc2c1
  A: · | B: · | C: · | D: 5% | E: · | F: 6%
> c1ccc2nc(-c3nc4ccccc4[nH]3)ccc2c1
  A: 15% | B: 0% | C: ? | D: 32µM* | E: ? | F: -1%
> COc1cccc(N=C2SC(C(=O)Nc3ccc(F)cc3)CC(=O)N2C)c1 (configuration not stated)
  A: 13% | B: 6% | C: ? | D: -3% | E: 21µM* | F: 0%
> N#Cc1ccc(-c2ccc3c(c2)OCO3)nc1SCC(=O)OCc1ccccc1
  A: -4% | B: 6% | C: -1% | D: 2.5µM* | E: 5% | F: 1%
> CCCN(CCC)C(=O)Cn1c(SCc2cccc(C(F)(F)F)c2)nc2cccnc21
  A: 1% | B: · | C: -5% | D: 5% | E: 2% | F: 6%
> COc1ccc(-c2csc(NC(=O)CSCc3c(C)noc3C)n2)cc1OC
  A: 9% | B: 2% | C: -8% | D: -2% | E: 23µM* | F: 3%
> COC(=O)c1c(-c2ccc(Br)cc2)csc1NC(=O)Cc1ccc(OC)c(OC)c1
  A: 13% | B: 6% | C: 4% | D: -4% | E: · | F: 2%
> COC(=O)c1c(-c2ccc(C)cc2)csc1NC(=O)C1CC=CCC1C(=O)O (configuration not stated)
  A: -33% | B: -1% | C: 2% | D: 16µM* | E: 19% | F: 0%
